These are literature values, as cited in patent publication EP4840446A1, “USE OF FUSED TRICYCLIC GAMMA-AMINO ACID DERIVATIVE IN TREATING PATHOLOGICAL CENTRAL NERVOUS PAIN” (dated 2026).

Protein sequences, listed by entry. Tags and fused reporters are not part of them. Lines headed by an entry give the natural chain unless they say otherwise; changes in a name come on top. Residues count along the entry.
UniProt P54289, 25-1103 limits assumed: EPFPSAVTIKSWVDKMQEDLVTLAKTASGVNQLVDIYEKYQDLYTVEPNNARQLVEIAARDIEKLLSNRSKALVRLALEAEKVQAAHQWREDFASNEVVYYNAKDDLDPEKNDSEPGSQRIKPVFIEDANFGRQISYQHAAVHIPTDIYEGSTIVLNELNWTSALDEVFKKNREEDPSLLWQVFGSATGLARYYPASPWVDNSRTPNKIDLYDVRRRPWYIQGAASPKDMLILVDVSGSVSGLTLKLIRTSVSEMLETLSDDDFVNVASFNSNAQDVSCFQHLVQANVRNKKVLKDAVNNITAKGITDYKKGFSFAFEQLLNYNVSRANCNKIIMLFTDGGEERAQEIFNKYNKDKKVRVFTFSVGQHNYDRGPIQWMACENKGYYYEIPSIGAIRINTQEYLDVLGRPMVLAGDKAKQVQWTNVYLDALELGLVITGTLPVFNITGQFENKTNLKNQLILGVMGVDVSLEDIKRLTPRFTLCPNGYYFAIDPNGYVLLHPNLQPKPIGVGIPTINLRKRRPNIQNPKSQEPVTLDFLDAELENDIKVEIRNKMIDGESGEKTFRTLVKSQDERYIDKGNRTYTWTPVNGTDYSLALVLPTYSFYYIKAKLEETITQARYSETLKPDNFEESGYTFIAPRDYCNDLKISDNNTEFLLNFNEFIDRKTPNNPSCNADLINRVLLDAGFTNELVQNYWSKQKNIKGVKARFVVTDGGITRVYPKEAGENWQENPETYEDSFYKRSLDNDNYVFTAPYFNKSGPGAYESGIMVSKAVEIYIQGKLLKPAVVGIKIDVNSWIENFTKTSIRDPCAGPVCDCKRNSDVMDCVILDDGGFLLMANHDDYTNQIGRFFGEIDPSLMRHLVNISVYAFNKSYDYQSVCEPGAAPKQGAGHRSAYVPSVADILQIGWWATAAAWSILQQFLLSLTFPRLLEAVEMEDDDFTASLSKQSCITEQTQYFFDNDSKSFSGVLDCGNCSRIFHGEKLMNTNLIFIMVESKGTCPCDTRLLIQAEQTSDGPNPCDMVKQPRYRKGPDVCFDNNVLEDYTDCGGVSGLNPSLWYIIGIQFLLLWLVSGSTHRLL

For series [1], the system named is spinal cord injury-related neuropathic pain. The following applies: patients with spinal cord injury-related neuropathic pain.
In series [2] the target is α2δ-1 subunit of calcium channels (Homo sapiens, UniProt P54289).

Consider `CC(C)C[C@H](CN)CC(=O)O`, for which, in series [1], the “efficacy in relieving pain compared with placebo” value is on record as “superior efficacy over placebo”. Consider Mirogabalin, for which the “dissociation rate from the α2δ-1” value in series [2] (compared with pregabalin) is on record as “slower rate compared with pregabalin”. Besides, in series [2] (α2δ-1 subunit of calcium channels), the “binding affinity and selectivity” value is “high binding affinity and selectivity”.
